In patent US20050281814A1, “Combination radiation therapy and chemotherapy in conjunction with administration of growth factor receptor antibody” (priority 2000, published 2005):

Test system: MAI PaCa-2 cells
Test: MiaPaCa-2 xenograft tumor therapy study with Herceptin, gemcitabine and radiation
Type: in vivo, athymic nude mice
Settings: Herceptin 1 mg i.p. every 3 days ×12, gemcitabine 120 mg/kg every 6 days ×6, radiation 3 Gy every 6 days ×6

Herceptin: anti-erbB-2 monoclonal antibody available commercially from Genentech, used for treatment of breast cancer
tumor regressions (percent of group): 12.5%
